# Measured affinities in a library of Ab-14 heavy chain variants

Reference: Li et al. 2023, doi:10.1038/s41467-023-39022-2. File: FLAb, binding data.

All variants were tested on one target, the spike HR2 peptide PDVDLGDISGINAS (SARS-CoV-2).

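The parent was found by panning a naive human phage display library on the peptide. These sequences belong to a second round, designed from the earlier measurements on random variants of the parent. Several design methods are mixed in this list. AlphaSeq pools MATa yeast showing the antibodies with MATalpha yeast showing the peptide. Pairs that bind mate more often; barcode pairs of the diploids are counted by sequencing. Scores were corrected for input abundance and mapped to Kd with protein pairs of known affinity run in the same pool. The assay was run in six technical replicates.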

Parent: Ab-14, a human scFv built as VH, a 15-residue (Gly4Ser)3 linker, VL. Only the CDRs of the heavy chain vary.
VH: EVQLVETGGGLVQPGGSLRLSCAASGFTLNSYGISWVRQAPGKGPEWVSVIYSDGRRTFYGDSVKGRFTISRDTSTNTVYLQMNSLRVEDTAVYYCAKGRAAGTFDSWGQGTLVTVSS
VL: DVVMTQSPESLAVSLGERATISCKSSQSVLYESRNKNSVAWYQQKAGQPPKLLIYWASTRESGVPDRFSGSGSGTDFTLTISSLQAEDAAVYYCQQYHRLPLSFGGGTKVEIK

Variants are written as CDR1, CDR2 and CDR3 of the heavy chain (limits as in the source). Parent: GFTLNSYGIS, VIYSDGRRTFYGDSVK, GRAAGTFDS. Variants here have more than six changes. Values are apparent Kd, the geometric mean of the replicates that gave a signal; lower means stronger binding. An entry "nd" has no value in the source: the pair was not observed among the diploids in any replicate. This suggests poor binding but is not conclusive. Nonspecific signal, from three strains lacking the peptide, appeared in 1% of pairings of all heavy chain designs, centred on 120 nM (5% of these signals below 7.0 nM); values are not corrected for it. The authors' rule: three or more of the six replicates give a measured affinity, fewer mean a poor binder. Values of this round are not directly comparable with the first-round values of the same sequences.

With GFDLDEYGIS / VIYADGKRTFYADSVK / GNNAGTFDV the result was 1.1 nM (6 of 6 replicates).
With GKDIESYGVS / VIYADGKRIAYANKFK / GSNAGSFVM the result was nd (0 of 6 replicates).
With GFDLNEYGIS / VIYADGQRTFYADSVK / GEVAGTFDL the result was 550 pM (6 of 6 replicates).
With GFTLNEVGIS / VIYSDGERTFYGDSVK / GRAWVTIDQ the result was nd (0 of 6 replicates).
With GFDIDEYGIS / VIYADGLRVQYKNRVK / GMYSGVIDM the result was nd (0 of 6 replicates).
With GFDINEYGVS / VIYADGMRTAYTDSVK / GEGQWINLI the result was nd (0 of 6 replicates).
With GFNLDEYGVS / VIYADGKRTQYTNNFK / GENAGFFMS the result was nd (0 of 6 replicates).
With GKSLDEYGIS / VIYADGLRKEYADSVK / GQFDDAMDL the result was nd (0 of 6 replicates).
With GFDLEEYGIS / VIYADGSRTAYADSVK / GNVAGTFNS the result was 340 pM (6 of 6 replicates).
With GFDINEYGIS / VIYADGVRTHYVDDVK / GKHTGYKMM the result was nd (0 of 6 replicates).
With GFDLQEYGIS / VIYADGKRRAYENKVK / GQSGGSVVI the result was nd (0 of 6 replicates).
With GFDLNEYGIS / VIYADGVRKAYADSVK / GNVAGTFDV the result was 640 pM (4 of 6 replicates).
With GFDLNEYGIS / VIYADGRRTAYSDSVK / GEVAGTFVE the result was 400 pM (6 of 6 replicates).
With GFGLNEYGIS / VIYADGRRTFYADSVK / GNQAGTFDQ the result was 630 pM (6 of 6 replicates).
With GFDLDEYGIS / VIYADGMRTAYSDSVK / GNEAGTFDQ the result was 360 pM (6 of 6 replicates).
With GFGLDEYGIS / VIYADGMRAQYATNVK / GYQAGVFST the result was nd (0 of 6 replicates).
With GFDLNEYGIS / VIYADGMRTAYADSVK / GHVAGTFDV the result was 270 pM (6 of 6 replicates).
With GNDLDEFGIS / VIYADGSRASYIDKVK / GLNGGQLIV the result was nd (0 of 6 replicates).
With GFDLNEYGIS / VIYADGRRTFYADSVK / GNAAGTFLV the result was 1.4 nM (6 of 6 replicates).
With GFDLNEYGVS / VIYADGVRSAYTSNVK / GVGNVDIML the result was nd (0 of 6 replicates).
With GFDLDEYGIS / VIYADGRRTFYADSVK / GELAGTFDL the result was 610 pM (5 of 6 replicates).
With GFDLNEYGIS / VIYADGKRKAYADSVK / GNNAGTFDV the result was 560 pM (6 of 6 replicates).
With GFDLEDYGIS / VIYADGRRTFYADSVK / GEAAGTFDL the result was 160 pM (6 of 6 replicates).
With GMDLGEYGIS / VIYADGERASYTNNFK / GVLGGFLTV the result was nd (0 of 6 replicates).
With GFDLNEYGIS / VIYADGMRTAYADSVK / GEQAGTFDV the result was 540 pM (6 of 6 replicates).
With GFDLNEYGIS / VIYADGKRTFYSDSVK / GNVAGTFDS the result was 150 pM (6 of 6 replicates).
With GFDLNEYGIS / VIYADGVRTGYQQQVK / GYHSGGLNQ the result was nd (0 of 6 replicates).
With GFDLNEYGIS / VIYADGRRTFYADSVK / GEAGGTFDV the result was 770 pM (6 of 6 replicates).
With GFDLNEYGIS / VIYADGRRTFYADSVK / GSEAGTFDV the result was 210 pM (6 of 6 replicates).
With GFDLNEYGIS / VIYADGRRTFYTDNVK / GQNAGTFDF the result was 1.0 nM (6 of 6 replicates).
With GFSILEYGIS / VIYSDGRRTAYDDSVK / GRDTGTFDS the result was nd (0 of 6 replicates).
With GFDLDEYGIS / VIYADGMRTVYADSVK / GNQAGTFDV the result was 380 pM (6 of 6 replicates).
With GFGLMDYGIS / VIYADGMRRSYANSVK / GKHAGFFDF the result was 280 nM (1 of 6 replicates).
With GFDLNEYGIS / VIYADGMRTSYADSVK / GEVAGTFDM the result was 2.5 nM (6 of 6 replicates).
With GYDIQEYGIS / VIYADGVRVAYHDSVK / GQTAGIFLL the result was nd (0 of 6 replicates).
With GFELDEYGIS / VIYADGARTAYVDNVK / GDAVGDFHV the result was 69 nM (1 of 6 replicates).
With GFSLNEYGIS / VIYADGKRNFYADSVK / GLHSGFFDI the result was 15 µM (1 of 6 replicates).
With KFDIEHYGIS / VIYADGKRSGYSNAVK / GQQAGTFNT the result was 1.6 nM (6 of 6 replicates).

Excerpt, the final 6 entries:

| CDR-H1 | CDR-H2 | CDR-H3 | Kd | detected |
|---|---|---|---|---|
| GFGLMDYGIS | VIYADGMRRSYANSVK | GKHAGFFDF | 280 nM | 1/6 |
| GFDLNEYGIS | VIYADGMRTSYADSVK | GEVAGTFDM | 2.5 nM | 6/6 |
| GYDIQEYGIS | VIYADGVRVAYHDSVK | GQTAGIFLL | nd | 0/6 |
| GFELDEYGIS | VIYADGARTAYVDNVK | GDAVGDFHV | 69 nM | 1/6 |
| GFSLNEYGIS | VIYADGKRNFYADSVK | GLHSGFFDI | 15 µM | 1/6 |
| KFDIEHYGIS | VIYADGKRSGYSNAVK | GQQAGTFNT | 1.6 nM | 6/6 |